Literature values, collected in PMC7618119.

Test system: P-glycoprotein
Details: ref Dagenais et al., 2004; Kalvass et al., 2007; F. Martins et al., 2023; Yu et al., 2018; cited from earlier work

For `CN1CC[C@]23c4c5ccc(O)c4O[C@H]2[C@@H](O)C=C[C@H]3[C@H]1C5`, the P-glycoprotein substrate is given as “substrates for P-glycoprotein-mediated extrusion from the brain”.
